This is an account of results in patent US20170298395A1, “AUTOTROPHIC HYDROGEN BACTERIA AND USES THEREOF” (Ohio State Innovation Foundation, priority 2011, published 2017).

For this data set, the system named is Rhodobacter capsulatus. To be noted: reversible toxicity.

In the case of n-butanol, the “butanol tolerated before growth was affected” value is on record as “about 0.8%”.
